# System: Calu3 cells
# Conditions: uninfected Calu3, 0.25 μM, 24 h
substance,measurement,value
brusatol,cytotoxicity (XTT assay),cytotoxic

# From US20250090557A1 (priority 2020, published 2025)
